From ChEMBL document CHEMBL2385026, “Identification of C-2 hydroxyethyl imidazopyrrolopyridines as potent JAK1 inhibitors with favorable physicochemical properties and high selectivity over JAK2” (J Med Chem, 2013)

Protein sequences, listed by entry. Tags and fused reporters are not part of them. Lines headed by an entry give the natural chain unless they say otherwise; changes in a name come on top.
UniProt P29597: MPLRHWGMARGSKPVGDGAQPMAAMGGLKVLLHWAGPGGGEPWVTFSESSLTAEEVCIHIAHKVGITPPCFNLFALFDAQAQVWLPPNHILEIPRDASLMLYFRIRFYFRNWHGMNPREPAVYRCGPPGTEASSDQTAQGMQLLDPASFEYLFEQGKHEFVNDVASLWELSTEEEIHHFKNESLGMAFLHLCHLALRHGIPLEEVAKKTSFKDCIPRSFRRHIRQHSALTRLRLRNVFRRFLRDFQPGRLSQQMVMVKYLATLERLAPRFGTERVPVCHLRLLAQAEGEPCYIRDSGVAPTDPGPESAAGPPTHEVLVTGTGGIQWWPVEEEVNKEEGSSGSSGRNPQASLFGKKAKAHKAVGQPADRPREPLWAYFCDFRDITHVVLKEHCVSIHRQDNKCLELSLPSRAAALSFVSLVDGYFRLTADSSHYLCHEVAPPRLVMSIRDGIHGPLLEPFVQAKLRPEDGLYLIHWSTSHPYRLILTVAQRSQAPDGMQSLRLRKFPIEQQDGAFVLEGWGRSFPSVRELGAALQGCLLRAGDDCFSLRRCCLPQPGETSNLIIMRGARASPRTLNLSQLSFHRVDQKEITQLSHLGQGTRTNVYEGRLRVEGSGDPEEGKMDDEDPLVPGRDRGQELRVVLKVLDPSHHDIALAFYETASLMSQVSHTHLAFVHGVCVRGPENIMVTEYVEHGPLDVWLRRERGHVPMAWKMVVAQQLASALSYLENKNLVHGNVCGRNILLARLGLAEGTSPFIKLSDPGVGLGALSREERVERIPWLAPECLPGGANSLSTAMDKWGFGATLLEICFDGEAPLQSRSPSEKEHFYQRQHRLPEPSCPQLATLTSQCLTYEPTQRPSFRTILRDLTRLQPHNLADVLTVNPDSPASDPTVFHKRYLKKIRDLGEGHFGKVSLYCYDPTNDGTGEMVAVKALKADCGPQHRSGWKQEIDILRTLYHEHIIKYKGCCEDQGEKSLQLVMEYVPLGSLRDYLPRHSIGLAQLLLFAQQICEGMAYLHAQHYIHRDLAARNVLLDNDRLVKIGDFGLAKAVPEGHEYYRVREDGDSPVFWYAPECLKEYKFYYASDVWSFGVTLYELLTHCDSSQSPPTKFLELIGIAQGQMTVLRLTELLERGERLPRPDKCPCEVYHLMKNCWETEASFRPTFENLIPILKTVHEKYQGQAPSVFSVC

Assays:
[1] = target: T1, Non-receptor tyrosine-protein kinase TYK2 (Homo sapiens, UniProt P29597)
[2] = target: T1, Non-receptor tyrosine-protein kinase TYK2; remark: listed apart in the source

EC50 [1]: 980 nM
Ki [2]: 1.7 nM
SMILES: C[C@@H](O)c1nc2cnc3[nH]ccc3c2n1[C@H]1CC[C@H](CCC#N)CC1
